Laboratory results as given in patent publication US11249070B2, “Anti-cancer drug assessment method” (TOPPAN PRINTING CO., LTD., priority 2016, dated 2022).

Tested on: HT29
Assay: CNT with cetuximab and/or bevacizumab, 2D, spheroid, 3D (Example 4)
Format: cell-based, human
Details: for CNT (%) Average value / CNT (%) Median value: cetuximab 1 mg/mL and/or bevacizumab 2 μg per well, 72 hours
Description: Moreover, for comparison, in place of the above cell structures, structures were produced by culturing cancer cells so as to form a single layer in a general culture container (2D method), and spheroids were produced by spheroid culture of a mixture of 2×10^6 NHDF, 3×10^4 HUVEC, and 2×10^4 HT29 (spheroid method). These were similarly cultured in the presence of bevacizumab and cetuximab.

## cetuximab
2D cultures and spheroids
  CNT: about 60%
2D
  CNT (%) Average value: 62.1%
  CNT (%) Median value: 60.5%
3D
  CNT (%) Average value: 70.4%
  CNT (%) Median value: 69.4%
Spheroid
  CNT (%) Average value: 64.9%
  CNT (%) Median value: 61.2%
Cell structures of the present Example, 3D
  CNT: low
